Experiment: Mouse pharmacokinetics, plasma and brain
Conditions: mice, 20 mg/kg IP

COc1ccc(OCCN2CCN(C(=O)c3cc4ccccc4[nH]3)CC2)cc1 [Compound 20, (1H-Indol-2-yl)(4-(2-(4-methoxyphenoxy)ethyl)piperazin-1-yl)methanone]
brain penetration: brain penetrant
